Test results taken from patent publication EP0523873A1, “Non-substrate peptide inhibitors of farnesyl protein transferase” (MERCK & CO. INC., priority 1991, dated 1993).

Tested on: partially pure bovine brain farnesyl-protein transferase
Assay: Tetrapeptides tested as farnesylation substrates with [3H]FPP (TLC / autoradiography)
Assay type: biochemical
Settings: peptide 200 µM, 0.5 µM [3H]-FPP, 30 minutes at 30°C
From the text: When a peptide was used as the acceptor substrate, there were two changes to the assay: (1) Ras protein was excluded and, (2) the reactions were stopped by the addition of one tenth volume of 0.5 M EDTA. A portion of the reaction mixture was spotted onto a TLC plate (silica gel 60 thin layer chromatography plates (20 cm x 20 cm, 0.25 mm layer thickness) [formula] were from E. Merck (Darrnstadt)) and eluted with either ethyl acetate:pyridine:acetic acid:water (10:5:1:3) or n-propanol:water (7:3) elution systems. After drying under vacuum, the plates were sprayed with En³Hance and exposed to X-ray film at -70°C.
CAAX tetrapeptides and other tetrapeptides including Cys-Xaa¹-Xaa²-Xaa³ were tested as farnesylation substrates using [³H]FPP and partially pure bovine brain farnesyl-protein transferase.
The indicated peptides at 200 µM were incubated with partially pure bovine farnesyl-protein transferase and 0.5 µM [3H]-FPP for 30 minutes at 30°C. Autoradiographic exposure time was overnight (15-20 hours).

Structure (SMILES): CC(C)C[C@H](NC(=O)[C@@H](NC(=O)[C@@H](N)CS)C(C)C)C(=O)N[C@@H](CO)C(=O)O [CVLS, Cys-Val-Leu-Ser]
- Farnesylation Substrate: + (+ > 90% [3H] farnesyl diphosphate converted to [3H] farnesyl tetrapeptide)
